From patent US11046713B2, “Androgen receptor modulating compounds” (ORION CORPORATION, priority 2009, dated 2021) come the findings set out here.

A word on the IC50: it is the concentration that gives 50% inhibition. Low values mean higher potency, high ones lower potency.

The test system of this experiment is VCaP prostate cancer cell line. In words: Inhibition of mibolerone-induced VCaP cell proliferation (WST-1). It counts as cell-based. The note with it: Homo sapiens, mibolerone-induced (usually 0.1 nM), 4-5 days. On the procedure: The IC50 value of the test compound for inhibition of mibolerone-induced VCaP cell proliferation was measured.
Cell Proliferation Assays
The ability of test compounds to inhibit prostate cancer cell growth was studied by measuring inhibition of cell proliferation using androgen-sensitive VCaP prostate cancer cell line. […] Cell proliferation was measured using WST-1 Cell Proliferation Assay (Roche).
`CC(=O)c1cc(C(=O)N[C@@H](C)Cn2ccc(-c3ccc(C#N)c(Cl)c3)n2)[nH]n1` [Example 34, (S)-3-acetyl-N-(1-(3-(3-chloro-4-cyanophenyl)-1H-pyrazol-1-yl)propan-2-yl)-1H-pyrazole-5-carboxamide]: it took 600 nM to reach half-maximal inhibition (IC50).

With `CC(O)c1cc(C(=O)N[C@@H](C)Cn2ccc(-c3ccc(C#N)c(Cl)c3)n2)[nH]n1` (stereo partly drawn) [Example 56, N—((S)-1-(3-(3-chloro-4-cyanophenyl)-1H-pyrazol-1-yl)-propan-2-yl)-3-(1-hydroxyethyl)-1H-pyrazole-5-carboxamide], the midpoint of inhibition, the IC50, lay at 400 nM.

Consider `CC(=O)c1cc(C(=O)NC[C@H](C)n2ccc(-c3cc(F)c(C#N)c(F)c3)n2)[nH]n1` [Example 219, (S)-3-acetyl-N-(2-(3-(4-cyano-3,5-difluorophenyl)-1H-pyrazol-1-yl)propyl)-1H-pyrazole-5-carboxamide], for which half-maximal inhibition (IC50) required 1400 nM.
